From PubChem BioAssay AID602162 (NMMLSC, 2011) come the findings set out here.

Sequences of proteins named here, by UniProt entry; tags and fusion partners are left off. A change or cut given only in a name is not applied to a line headed by its entry.
UniProt Q9NP58: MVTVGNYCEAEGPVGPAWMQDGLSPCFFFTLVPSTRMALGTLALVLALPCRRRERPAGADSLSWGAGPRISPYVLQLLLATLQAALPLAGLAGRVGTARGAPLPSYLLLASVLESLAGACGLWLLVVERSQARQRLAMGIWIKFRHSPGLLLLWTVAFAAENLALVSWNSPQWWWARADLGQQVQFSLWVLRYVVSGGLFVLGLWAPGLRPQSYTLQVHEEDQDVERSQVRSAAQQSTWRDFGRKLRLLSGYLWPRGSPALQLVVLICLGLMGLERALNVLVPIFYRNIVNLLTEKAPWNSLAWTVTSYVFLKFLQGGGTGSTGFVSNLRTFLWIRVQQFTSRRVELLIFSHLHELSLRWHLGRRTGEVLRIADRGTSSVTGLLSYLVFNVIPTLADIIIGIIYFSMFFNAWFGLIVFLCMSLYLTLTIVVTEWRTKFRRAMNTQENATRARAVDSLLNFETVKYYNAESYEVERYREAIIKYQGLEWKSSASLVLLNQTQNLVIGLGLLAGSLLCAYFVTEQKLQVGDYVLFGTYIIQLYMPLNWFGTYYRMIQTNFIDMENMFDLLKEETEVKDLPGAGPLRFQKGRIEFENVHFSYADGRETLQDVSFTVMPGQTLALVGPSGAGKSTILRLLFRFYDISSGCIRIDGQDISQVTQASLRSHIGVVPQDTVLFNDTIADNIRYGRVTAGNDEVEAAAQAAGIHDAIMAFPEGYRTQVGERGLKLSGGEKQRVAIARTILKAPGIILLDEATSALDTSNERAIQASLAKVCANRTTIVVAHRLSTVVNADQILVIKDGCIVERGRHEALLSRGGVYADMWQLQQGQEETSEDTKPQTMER

This is a selection; strong and weak results do not stand in their true shares. Calls of active or inactive are those of the source.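 How the source made its calls: active means fluorescence ratio to DMSO below 75%, the collection mean minus 3 SD; inconclusive means too few cells collected in the well; inactive means the rest.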

The target of this assay is ATP-binding cassette sub-family B member 6 (Homo sapiens) (UniProt Q9NP58). The assay is described as follows: blockers of ABCB6-driven porphyrin uptake – K562-ABCB6 cells, flow cytometry, MLPCN library, primary screen (AID 602162).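 Further: signal is porphyrin accumulated inside mitochondria; 100% equals median channel fluorescence of DMSO control wells; lower ratio means ABCB6 inhibition with less porphyrin fluorescence.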 Conditions: K562-ABCB6 porphyrin accumulation, 1 h, at 10 µM, active compounds read low. For orientation: In flow cytometry, cells or beads pass a laser one at a time.
For `Cc1cc(SC(NC(=O)c2ccccc2)C(Cl)(Cl)Cl)nc(C(C)C)n1` (stereo not drawn), the fluorescence ratio to DMSO is inactive: 100%.
Turning to `CCCCOc1ccc(C(=O)NCC2(N3CCCCC3)CCCCC2)cc1OC`, the fluorescence ratio to DMSO is inactive: 104%.
Next, `COP(=O)(OC)N1CC1c1ccccc1` (stereo not drawn): inactive: 101%; `CCOC(=O)Nc1cccc([As](=O)(O)O)c1`: inactive: 106%; `O=[N+]([O-])c1ccc(Nc2ccc(Oc3ccc([N+](=O)[O-])cc3[N+](=O)[O-])cc2)c([N+](=O)[O-])c1`: inactive: 96%.
Next, `Cc1cc(SC(NC=O)C(Cl)(Cl)Cl)ncn1` (stereo not drawn): inactive: 99%; `O=P(Nc1ccccn1)(c1cccc2ccccc12)c1cccc2ccccc12`: inactive: 95%; `COC(=O)C1(C)COP(=O)(N2CCCC2)OC1` (stereo not drawn): inactive: 101%.
Regarding `COP1(=S)c2c(C)nn(CCC#N)c2N=C(c2ccc(F)cc2)N1C` (stereo not drawn), the fluorescence ratio to DMSO is inactive: 99%.
Next, `O=C(Nc1ccncc1[N+](=O)[O-])c1ccc([N+](=O)[O-])cc1[N+](=O)[O-]`: inactive: 101%; `O=C(COc1ccccc1)OC1CN2CCC1CC2` (stereo not drawn): inactive: 101%; `O=C(O)C(=O)c1ccc(N(CCCl)CCCl)cc1`: inactive: 101%.
Next, `CCOC(=O)c1ccc(NC(=O)C(C)(CCl)SC)cc1` (stereo not drawn): inactive: 99%; `CSc1ccc(Nc2c([N+](=O)[O-])cc([N+](=O)[O-])cc2[N+](=O)[O-])cc1`: inactive: 91%; `O=C(OC1CN2CCC1CC2)c1cccc([N+](=O)[O-])c1` (stereo not drawn): inactive: 93%.
Next, `CCC(C)N(CC(C)C)C(=S)SC(NC(C)=O)C(Cl)(Cl)Cl` (stereo not drawn): inactive: 98%; `Cc1cc(=O)[nH]c(N[N+](=O)[O-])n1`: inactive: 96%.
For the compound `O=C(OC1CN2CCC1CC2)C12CC3CC(CC(C3)C1)C2` (stereo not drawn), the fluorescence ratio to DMSO was inactive: 85%.
Next, `Cc1c2c(nc3ccccc13)SC(C(Cl)Cl)C2` (stereo not drawn): inactive: 103%; `COc1cc(I)ccc1[As](=O)(O)O`: inactive: 97%; `COc1ccc2nc(NP(=O)(c3ccccc3)c3ccccc3)sc2c1`: inactive: 101%.
For the compound `O=P1(N(CCCl)CCCl)OCCCN1CCCl` (stereo not drawn), the fluorescence ratio to DMSO was inactive: 92%.
The figure for `O=P1(N(CCCl)CCCl)Nc2ccccc2N1` is inactive: 94%.
In the case of `COc1ccc(N/C(=N/P(=O)(N2CCOCC2)N2CCOCC2)N2CCOCC2)cc1`, the fluorescence ratio to DMSO was inactive: 98%.
As to `O=[N+]([O-])c1cc(Oc2ccc([N+](=O)[O-])cc2C(F)(F)F)cc([N+](=O)[O-])c1`, the fluorescence ratio to DMSO was inactive: 96%.
The figure for `O=[N+]([O-])c1ccc(-c2cc([N+](=O)[O-])c(O)c([N+](=O)[O-])c2)cc1` is inactive: 101%; for `COc1cc(C(=O)NCC2(N3CCOCC3)CCCCC2)ccc1OCC(C)C` it is inactive: 97%.
As to `C[As](=O)(O)c1cccc(C(=O)O)c1`, the fluorescence ratio to DMSO was inactive: 99%.
The figure for `O=[As](O)(c1ccc(O)cc1)c1ccccc1O` is inactive: 92%.
For the compound `Cc1ccc2nc3c(c(C)c2c1)CC(C(Cl)Cl)S3` (stereo not drawn), the fluorescence ratio to DMSO is inactive: 105%.
Next, `Cc1ccc(OP(=O)(Nc2ccc([N+](=O)[O-])cn2)Oc2ccc(C)cc2)cc1`: inactive: 91%; `[N-]=[N+]=NC1CCCCC1NC(=O)c1cc([N+](=O)[O-])cc([N+](=O)[O-])c1` (stereo not drawn): inactive: 97%.
With `COC(=O)C1(C)COP(=O)(N2CCCCCC2)OC1` (stereo not drawn), the fluorescence ratio to DMSO was inactive: 100%.
Next, `CC(C)c1ccc(OP(=O)(Nc2ccccn2)Oc2ccccc2F)cc1` (stereo not drawn): inactive: 98%.
Next, `ClCCSc1nnc(-c2cccnc2)o1`: inactive: 101%.
Turning to `O=[N+]([O-])c1cc([N+](=O)[O-])c(-c2ccn[nH]2)s1`, the fluorescence ratio to DMSO was inactive: 100%.
For the compound `CC(C)NC(=O)NP(=O)(Oc1ccccc1)Oc1ccccc1`, the fluorescence ratio to DMSO was inactive: 104%.
For the compound `O=C(OC1CN2CCC1CC2)c1cccc2[nH]cnc12` (stereo not drawn), the fluorescence ratio to DMSO was inactive: 98%.
The figure for `CCN(CC)C(=S)SC(NC=O)C(Cl)(Cl)Cl` (stereo not drawn) is inactive: 97%.
For `CCCC1OP(N)(=O)OCC1CC` (stereo not drawn), the fluorescence ratio to DMSO was inactive: 99%.
The figure for `CC(=O)Nc1ccc([As](=O)(O)O)cc1` is inactive: 101%; for `O=C(O)c1ccccc1[As](=O)(O)O` it is inactive: 96%.
The figure for `O=P(Nc1nc2ccc(Cl)cc2s1)(c1ccccc1)c1ccccc1` is inactive: 103%.
Next, `CN(C)P(=O)(N(C)C)n1c(Nc2ccccc2)nnc1-c1ccccc1`: inactive: 94%; `CN(C(=O)Cc1ccc(Cl)c(Cl)c1)[C@H]1CCCC[C@@H]1N1CCCC1`: inactive: 93%.
Turning to `Cc1ccc(NP(=O)(Oc2ccccc2F)Oc2ccccc2F)nc1`, the fluorescence ratio to DMSO was inactive: 96%.
Next, `Cc1cc(SC(NC(=O)c2ccc(F)cc2)C(Cl)(Cl)Cl)ncn1` (stereo not drawn): inactive: 94%.
The figure for `CCOP(=O)(Nc1ccccc1)OCC` is inactive: 103%; for `CCN(N=Nc1nonc1N)c1nonc1N` it is inactive: 98%.
On to `Nc1cccc2ccc([As](=O)(O)O)cc12`, for which the fluorescence ratio to DMSO is inactive: 102%.
Next, `NC(=O)c1cc([N+](=O)[O-])cc([N+](=O)[O-])c1N`: inactive: 93%.
Next, `Cc1ccc(N/C(=N/P(=O)(N2CCOCC2)N2CCOCC2)N2CCOCC2)cc1`: inactive: 107%; `CN(C(=O)Cc1ccc(Cl)c(Cl)c1)[C@H]1CCCC[C@H]1N1CCCC1`: inactive: 98%.
